# Measured affinities in a library of Ab-14 light chain variants

Reference: Engelhart et al. 2022, doi:10.1038/s41597-022-01779-4. File: FLAb, binding data.

Binding partner: SARS-CoV-2 spike HR2 peptide, sequence PDVDLGDISGINAS.

Parent: Ab-14, a human scFv built as VH, three GGGGS repeats, VL. Only the CDRs of the light chain vary.
VH: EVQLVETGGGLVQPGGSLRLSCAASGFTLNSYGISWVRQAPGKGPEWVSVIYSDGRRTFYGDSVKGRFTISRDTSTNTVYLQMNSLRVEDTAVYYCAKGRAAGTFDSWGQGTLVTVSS
VL: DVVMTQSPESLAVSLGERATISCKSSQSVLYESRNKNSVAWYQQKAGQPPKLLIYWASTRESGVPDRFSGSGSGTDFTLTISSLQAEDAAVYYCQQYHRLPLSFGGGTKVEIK

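The parent was found by panning a naive human phage display library on the peptide. In library AAYL50, one, two or three CDR residues were substituted; doubles and triples were drawn at random. AlphaSeq pools MATa yeast showing the antibodies with MATalpha yeast showing the peptide. After mating in shaken culture at 30 °C for 16 h, diploids were selected and their barcode pairs sequenced. Each replicate has its own calibration line, from reference interactions of the BCL2 family. The assay was run in three technical replicates.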

Changes read parent residue, position, new residue, counted from the first residue of the VL shown.
Every variant below is changed at S38 of the VL (sequential numbering).
The read-out is the apparent dissociation constant on a log10 scale (nM): the lower, the stronger.
A mean of the replicates is given; it leaves out those without a signal.
A pair that was not seen in any replicate is written "nd"; this usually means weak binding, but a binder can also be missed.
Entries are sorted by rising average, undetected variants last.
Parent in this assay: reference entry 0.65, copy in this library 1.68.
Three control strains display no target. For library AAYL50, 18% of the pairings with them gave a signal, with a median of 4.19 and one signal in twenty below 2.99, so weak values seen in few replicates may be background.

S38D/W56S/T59Y: 0.24 (3 of 3 replicates).
S38A/V39M/L102W: 1.02 (3 of 3 replicates).
S38N/L100Y/S103L: 1.10 (3 of 3 replicates).
R34A/S38D/L100T: 1.19 (3 of 3 replicates).
V29K/S38Q/T59E: 1.37 (3 of 3 replicates).
S25D/S38V/W56H: 1.74 (3 of 3 replicates).
S26T/S38A/E61T: 1.84 (3 of 3 replicates).
L30I/S38A/R60K: 1.95 (3 of 3 replicates).
Q27F/Y31F/S38D: 1.96 (3 of 3 replicates).
S26G/S38W/W56S: 2.09 (3 of 3 replicates).
K24G/V29H/S38C: 2.42 (1 of 3 replicates).
R34K/S38T/T59Y: 2.48 (3 of 3 replicates).
E32P/S38M/H98F: 2.62 (3 of 3 replicates).
S38Q/S58Q: 2.71 (3 of 3 replicates).
K24G/S38M/S62E: 2.72 (2 of 3 replicates).
S38L/A57R/T59K: 3.08 (1 of 3 replicates).
S28P/S38L/A57D: 3.50 (1 of 3 replicates).
K24I/S38M/Q96F: 3.63 (2 of 3 replicates).
S28Y/V29C/S38G: 3.73 (2 of 3 replicates).
N35P/S38G/L100V: 3.88 (2 of 3 replicates).
S38A/E61K/L102K: 4.05 (1 of 3 replicates).
S28D/Y31M/S38V: 4.40 (1 of 3 replicates).
N37M/S38P/Q95C: 4.52 (1 of 3 replicates).
Q27I/S38D/S58H: 4.80 (3 of 3 replicates).
S26N/S38I: 4.81 (2 of 3 replicates).
V29G/S38E/A57P: 4.90 (1 of 3 replicates).
S38L/A57F: 4.94 (2 of 3 replicates).
V29L/S33N/S38M: 5.02 (3 of 3 replicates).
S38D/W56I/T59Q: 5.93 (1 of 3 replicates).
E32L/S38L/L102P: nd (0 of 3 replicates).
K24I/S38E/S62C: nd (0 of 3 replicates).
Q27D/S38K/S103P: nd (0 of 3 replicates).
S38Y/T59C/S103W: nd (0 of 3 replicates).
S28W/S38L/L100C: nd (0 of 3 replicates).
S38R/Q96C/P101L: nd (0 of 3 replicates).
S38V/S62L/Q95T: nd (0 of 3 replicates).
S38L/V39Y/L100Y: nd (0 of 3 replicates).
S38T/S62T/P101C: nd (0 of 3 replicates).
S38K/S58E: nd (0 of 3 replicates).
S38Y/R99L/L100E: nd (0 of 3 replicates).
S38N/V39C/S58P: nd (0 of 3 replicates).
S38L/R99G: nd (0 of 3 replicates).
S28Q/N37V/S38R: nd (0 of 3 replicates).
S38N/A57D/R99E: nd (0 of 3 replicates).
S26F/K36E/S38V: nd (0 of 3 replicates).
S38F/S103I: nd (0 of 3 replicates).
L30C/N37M/S38W: nd (0 of 3 replicates).

The last 3 entries again:

| changes | log10 Kd (nM), mean | detected |
|---|---|---|
| S26F/K36E/S38V | nd | 0 of 3 |
| S38F/S103I | nd | 0 of 3 |
| L30C/N37M/S38W | nd | 0 of 3 |